# Results: patent publication US20100104511A1, “METHODS AND COMPOSITIONS USING CHELATOR-ANTIBODY CONJUGATES” (priority 2006, published 2010)
# Test system: A431 cells
# Assay: Apoptosis by Annexin-V-Fluos staining and flow cytometry
# Details: A431, 10 μM, 72 hours
structure (smiles),measurement,value
COc1cc2ncnc(Nc3ccc(F)c(Cl)c3)c2cc1OCCCN1CCOCC1 [gefitinib],apoptosis percentage after deducting DMSO control,24.7%
